Like-named read-outs stand apart in the source and are kept apart here.
How the values were obtained:
guinea pigs = settings: intragastric daily for 10 days, 0.14-14 mg/kg
Male Balb/c mice = settings: 3 mg/kg intragastrically every 10-12 hours; 48 hours after carrageenan
[1] = tested on: male white nonlinear rats; assay: Carrageenan-induced rat paw edema; assay type: in vivo; settings: 1 hour before carrageenan, 2 hours after carrageenan
Description: Experiments were performed on male white nonlinear rats weighing 250-270 g.

SMILES | Lymphocytes (male guinea pigs; 0.014 mg/kg intragastrically daily day 10-19) | Lymphocytes (male guinea pigs; 1.4 mg/kg intragastrically daily day 10-19) | Influx of inflammatory cells in the bronchoalveolar space (guinea pigs) | Leukocytes in the exudate (Male Balb/c mice) | Macrophages in the exudate (Male Balb/c mice) | Inhibition of edema growth ([1]; 0.18 mg/kg intragastrically once) | Inhibition of edema growth ([1]; 1.8 mg/kg intragastrically once)
O=C(NCCc1cnc[nH]1)C(=O)NCCc1cnc[nH]1 [Compound I, N,N′-bis[2-(1H-imidazol-4-yl)ethyl]oxalamide] | 88 ± 29 in 1 μl of the bronchoalveolar lavage | 71 ± 29 in 1 μl of the bronchoalveolar lavage | has reduced the influx of inflammatory cells in the bronchoalveolar space | – | – | – | –
O=C(NCCc1c[nH]cn1)c1cccc(C(=O)NCCc2c[nH]cn2)c1 [Compound II, N,N′-bis[2-(1H-imidazol-4-yl)ethyl]isophthalamide] | – | – | – | 1.0 ± 0.1 & × 10^9/1 | 0.5 ± 0.1 & × 10^9/1 | 34% | 34%

Source: patent publication US11845740B2, “Glutaminyl cyclase inhibitors and the use thereof in treatment of various diseases” (OBSCHESTVO S OGRANICHENNOI OTVETSTVENNOSTIYU …, priority 2017, dated 2023)
